The test system of the assay is Melanocortin receptor 1 (Homo sapiens). The assay can be described thus: Inhibition of human MC1 receptor at 10 uM.

Each structure is given as a SMILES string.

Data on two molecules can be found in ChEMBL document CHEMBL1156733, “Structure-activity relationship studies on a series of piperazinebenzylalcohols and their ketone and amine analogs as melanocortin-4 receptor ligands” (Bioorg Med Chem Lett, 2008).

On to `CC(C)CC(O)c1ccccc1N1CCN(C(=O)[C@@H](Cc2ccc(Cl)cc2Cl)NC(=O)CCN)CC1` (some centres not stated), for which the inhibition (usually the share of the control response that was lost under treatment) was determined as 24%.

`CC(C)CC(N)c1ccccc1N1CCN(C(=O)[C@@H](Cc2ccc(Cl)cc2Cl)NC(=O)CCN)CC1` (some centres not stated) yielded an inhibition of 38%.
